## AlphaSeq binding of Ab-14 light chain variants to a spike HR2 peptide

Values reported by Engelhart et al. 2022, doi:10.1038/s41597-022-01779-4 (FLAb copy).

Binding partner: SARS-CoV-2 spike HR2 peptide, sequence PDVDLGDISGINAS.

Each scFv is VH, a 15-residue (Gly4Ser)3 linker, VL, as in the parent Ab-14, and differs from it in the CDRs of the light chain only.
VH: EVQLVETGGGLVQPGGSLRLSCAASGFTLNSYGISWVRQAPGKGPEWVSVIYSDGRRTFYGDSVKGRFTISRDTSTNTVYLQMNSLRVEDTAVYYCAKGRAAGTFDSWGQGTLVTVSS
VL: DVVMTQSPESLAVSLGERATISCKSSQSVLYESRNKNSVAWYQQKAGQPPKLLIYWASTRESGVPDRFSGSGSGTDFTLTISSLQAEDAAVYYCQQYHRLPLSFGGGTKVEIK

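In library AAYL50, one, two or three CDR residues were substituted; doubles and triples were drawn at random. The assay is AlphaSeq: two haploid yeast populations carry antibody and antigen on their surface. After mating in shaken culture at 30 °C for 16 h, diploids were selected and their barcode pairs sequenced. Each replicate has its own calibration line, from reference interactions of the BCL2 family. The assay was run in three technical replicates.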

Each variant is given by its three light chain CDRs, as the data file delimits them; those of the parent are KSSQSVLYESRNKNSVA, WASTRES, QQYHRLPLS. Only single mutants are listed, position by position. Numbers give log10(Kd / nM), so 0 is 1 nM and 3 is 1 µM. Smaller is tighter. Replicates are averaged; those with no signal do not enter the mean. Where no diploid with the target was found in that replicate, the entry reads "ND": below detection, most likely a poor binder, though not proof of it. Empty control strains, which show no peptide, gave a signal in 18% of pairings with library AAYL50; the median was 4.19 and 95% of these signals were weaker than 2.99. No background was subtracted. In this assay the parent's reference entry averaged 0.65; its copy inside this library read 1.68.

| CDR-L1 | CDR-L2 | CDR-L3 | replicates, log10 nM | mean log10 Kd (nM) |
|---|---|---|---|---|
| RSSQSVLYESRNKNSVA | WASTRES | QQYHRLPLS | ND / 2.11 / 2.28 | 2.19 |
| ESSQSVLYESRNKNSVA | WASTRES | QQYHRLPLS | 1.41 / 1.43 / 1.43 | 1.43 |
| NSSQSVLYESRNKNSVA | WASTRES | QQYHRLPLS | 1.10 / 1.11 / 1.15 | 1.12 |
| MSSQSVLYESRNKNSVA | WASTRES | QQYHRLPLS | 1.43 / 1.71 / 1.62 | 1.59 |
| VSSQSVLYESRNKNSVA | WASTRES | QQYHRLPLS | 2.37 / 1.88 / 2.05 | 2.10 |
| FSSQSVLYESRNKNSVA | WASTRES | QQYHRLPLS | 1.36 / 1.32 / 1.26 | 1.31 |
| ASSQSVLYESRNKNSVA | WASTRES | QQYHRLPLS | 1.37 / 1.25 / 1.40 | 1.34 |
| YSSQSVLYESRNKNSVA | WASTRES | QQYHRLPLS | 0.57 / 0.65 / 0.52 | 0.58 |
| TSSQSVLYESRNKNSVA | WASTRES | QQYHRLPLS | 1.29 / 1.37 / 1.20 | 1.29 |
| QSSQSVLYESRNKNSVA | WASTRES | QQYHRLPLS | 1.23 / 1.26 / 1.48 | 1.32 |
| WSSQSVLYESRNKNSVA | WASTRES | QQYHRLPLS | 1.93 / 2.05 / 2.46 | 2.14 |
| DSSQSVLYESRNKNSVA | WASTRES | QQYHRLPLS | 1.25 / 1.29 / 1.56 | 1.37 |
| SSSQSVLYESRNKNSVA | WASTRES | QQYHRLPLS | 0.85 / 0.86 / 1.12 | 0.94 |
| CSSQSVLYESRNKNSVA | WASTRES | QQYHRLPLS | 1.94 / 1.96 / 2.23 | 2.04 |
| LSSQSVLYESRNKNSVA | WASTRES | QQYHRLPLS | ND / ND / ND | ND |
| GSSQSVLYESRNKNSVA | WASTRES | QQYHRLPLS | 1.60 / 1.84 / 1.61 | 1.68 |
| KWSQSVLYESRNKNSVA | WASTRES | QQYHRLPLS | 1.16 / 1.31 / 1.40 | 1.29 |
| KYSQSVLYESRNKNSVA | WASTRES | QQYHRLPLS | 0.85 / 0.97 / 0.91 | 0.91 |
| KISQSVLYESRNKNSVA | WASTRES | QQYHRLPLS | -0.17 / 0.17 / -0.06 | -0.02 |
| KDSQSVLYESRNKNSVA | WASTRES | QQYHRLPLS | 1.98 / 2.09 / 2.15 | 2.07 |
| KCSQSVLYESRNKNSVA | WASTRES | QQYHRLPLS | 0.88 / 1.09 / 1.15 | 1.04 |
| KRSQSVLYESRNKNSVA | WASTRES | QQYHRLPLS | 1.91 / 2.11 / 2.01 | 2.01 |
| KASQSVLYESRNKNSVA | WASTRES | QQYHRLPLS | -0.04 / 0.44 / 0.33 | 0.24 |
| KQSQSVLYESRNKNSVA | WASTRES | QQYHRLPLS | 1.35 / 1.64 / 1.52 | 1.50 |
| KTSQSVLYESRNKNSVA | WASTRES | QQYHRLPLS | 1.06 / 1.07 / 1.00 | 1.04 |
| KGSQSVLYESRNKNSVA | WASTRES | QQYHRLPLS | 2.97 / 2.58 / 4.04 | 3.20 |
| KPSQSVLYESRNKNSVA | WASTRES | QQYHRLPLS | 2.41 / 2.04 / 2.03 | 2.16 |
| KFSQSVLYESRNKNSVA | WASTRES | QQYHRLPLS | 0.36 / 0.62 / 0.61 | 0.53 |
| KNSQSVLYESRNKNSVA | WASTRES | QQYHRLPLS | 1.36 / 1.57 / 1.68 | 1.54 |
| KESQSVLYESRNKNSVA | WASTRES | QQYHRLPLS | 0.61 / 0.91 / 0.95 | 0.82 |
| KLSQSVLYESRNKNSVA | WASTRES | QQYHRLPLS | -0.36 / 0.06 / -0.24 | -0.18 |
| KSIQSVLYESRNKNSVA | WASTRES | QQYHRLPLS | 0.94 / 1.36 / 1.29 | 1.20 |
| KSCQSVLYESRNKNSVA | WASTRES | QQYHRLPLS | 1.41 / 1.55 / 1.77 | 1.58 |
| KSQQSVLYESRNKNSVA | WASTRES | QQYHRLPLS | ND / 3.01 / ND | 3.01 |
| KSMQSVLYESRNKNSVA | WASTRES | QQYHRLPLS | 1.09 / 1.18 / 1.16 | 1.14 |
| KSPQSVLYESRNKNSVA | WASTRES | QQYHRLPLS | 1.47 / 1.67 / 1.85 | 1.67 |